# B1: RAC-alpha serine/threonine-protein kinase (Homo sapiens), P31749 (parent)
# chain: MSDVAIVKEGWLHKRGEYIKTWRPRYFLLKNDGTFIGYKERPQDVDQREAPLNNFSVAQCQLMKTERPRPNTFIIRCLQWTTVIERTFHVETPEEREEWTTAIQTVADGLKKQEEEEMDFRSGSPSDNSGAEEMEVSLAKPKHRVTMNEFEYLKLLGKGTFGKVILVKEKATGRYYAMKILKKEVIVAKDEVAHTLTENRVLQNSRHPFLTALKYSFQTHDRLCFVMEYANGGELFFHLSRERVFSEDRARFYGAEIVSALDYLHSEKNVVYRDLKLENLMLDKDGHIKITDFGLCKEGIKDGATMKTFCGTPEYLAPEVLEDNDYGRAVDWWGLGVVMYEMMCGRLPFYNQDHEKLFELILMEEIRFPRTLGPEAKSLLSGLLKKDPKQRLGGGSEDAKEIMQHRFFAGIVWQHVYEKKLSPPFKPQVTSETDTRYFDEEFTAQMITITPPDQDDSMECVDSERRPHFPQFSYSASGTA
# partner: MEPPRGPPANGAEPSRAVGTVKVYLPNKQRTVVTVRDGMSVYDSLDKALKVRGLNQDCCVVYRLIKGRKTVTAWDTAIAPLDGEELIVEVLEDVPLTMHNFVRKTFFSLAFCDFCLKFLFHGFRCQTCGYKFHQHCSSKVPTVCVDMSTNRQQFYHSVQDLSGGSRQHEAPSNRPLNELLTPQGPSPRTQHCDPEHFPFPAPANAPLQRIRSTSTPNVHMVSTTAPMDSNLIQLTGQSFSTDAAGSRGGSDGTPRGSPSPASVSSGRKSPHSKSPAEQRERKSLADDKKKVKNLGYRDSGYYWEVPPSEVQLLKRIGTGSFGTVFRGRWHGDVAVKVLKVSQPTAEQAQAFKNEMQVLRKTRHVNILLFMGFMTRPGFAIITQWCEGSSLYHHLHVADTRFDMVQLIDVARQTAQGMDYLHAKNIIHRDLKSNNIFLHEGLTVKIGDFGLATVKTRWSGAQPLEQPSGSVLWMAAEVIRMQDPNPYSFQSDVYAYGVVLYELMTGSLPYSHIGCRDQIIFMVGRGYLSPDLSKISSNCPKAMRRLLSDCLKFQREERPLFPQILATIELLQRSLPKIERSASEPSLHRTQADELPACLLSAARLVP
# B2: RAC-alpha serine/threonine-protein kinase (Homo sapiens), P31749 (parent)
# chain: B1 chain
# partner: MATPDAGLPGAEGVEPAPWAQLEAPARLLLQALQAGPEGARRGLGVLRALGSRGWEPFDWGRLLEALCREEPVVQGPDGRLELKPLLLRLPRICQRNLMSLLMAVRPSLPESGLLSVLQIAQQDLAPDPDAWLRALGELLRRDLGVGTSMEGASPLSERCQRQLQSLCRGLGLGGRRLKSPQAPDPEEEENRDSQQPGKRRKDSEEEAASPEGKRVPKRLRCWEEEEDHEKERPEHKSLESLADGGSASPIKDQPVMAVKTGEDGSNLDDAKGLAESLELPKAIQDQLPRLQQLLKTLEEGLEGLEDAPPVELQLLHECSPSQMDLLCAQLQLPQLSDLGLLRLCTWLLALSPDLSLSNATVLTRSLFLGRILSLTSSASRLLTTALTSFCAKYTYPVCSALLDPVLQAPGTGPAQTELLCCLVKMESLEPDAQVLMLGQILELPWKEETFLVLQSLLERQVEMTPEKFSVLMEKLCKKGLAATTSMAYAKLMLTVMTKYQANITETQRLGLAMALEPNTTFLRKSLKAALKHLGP
# B3: RAC-alpha serine/threonine-protein kinase (Homo sapiens), P31749 (parent)
# chain: B1 chain
# partner: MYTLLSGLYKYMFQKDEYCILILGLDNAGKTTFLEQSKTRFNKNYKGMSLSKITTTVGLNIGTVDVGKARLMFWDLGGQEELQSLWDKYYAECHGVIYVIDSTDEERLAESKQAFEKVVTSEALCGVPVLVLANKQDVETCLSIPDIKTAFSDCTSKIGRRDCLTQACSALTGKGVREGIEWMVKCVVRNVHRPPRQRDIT
# B4: RAC-alpha serine/threonine-protein kinase (Homo sapiens), P31749 (parent)
# chain: B1 chain
# partner: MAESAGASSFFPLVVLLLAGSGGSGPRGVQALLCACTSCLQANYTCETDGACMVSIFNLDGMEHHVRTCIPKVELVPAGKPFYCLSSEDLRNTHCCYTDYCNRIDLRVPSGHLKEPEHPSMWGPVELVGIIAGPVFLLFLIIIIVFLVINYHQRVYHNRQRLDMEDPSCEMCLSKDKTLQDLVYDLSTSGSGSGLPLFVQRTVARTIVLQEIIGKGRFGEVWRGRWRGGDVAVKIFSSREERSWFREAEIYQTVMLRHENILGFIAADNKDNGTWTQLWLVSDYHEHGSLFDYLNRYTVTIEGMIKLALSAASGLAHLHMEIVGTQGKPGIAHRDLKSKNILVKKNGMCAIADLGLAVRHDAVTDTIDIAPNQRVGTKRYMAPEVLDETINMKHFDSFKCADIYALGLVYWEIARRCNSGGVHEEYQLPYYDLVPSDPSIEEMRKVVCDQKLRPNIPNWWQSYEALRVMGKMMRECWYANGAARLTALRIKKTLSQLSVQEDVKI
# B5: RAC-alpha serine/threonine-protein kinase (Homo sapiens), P31749 (parent)
# chain: B1 chain
# partner: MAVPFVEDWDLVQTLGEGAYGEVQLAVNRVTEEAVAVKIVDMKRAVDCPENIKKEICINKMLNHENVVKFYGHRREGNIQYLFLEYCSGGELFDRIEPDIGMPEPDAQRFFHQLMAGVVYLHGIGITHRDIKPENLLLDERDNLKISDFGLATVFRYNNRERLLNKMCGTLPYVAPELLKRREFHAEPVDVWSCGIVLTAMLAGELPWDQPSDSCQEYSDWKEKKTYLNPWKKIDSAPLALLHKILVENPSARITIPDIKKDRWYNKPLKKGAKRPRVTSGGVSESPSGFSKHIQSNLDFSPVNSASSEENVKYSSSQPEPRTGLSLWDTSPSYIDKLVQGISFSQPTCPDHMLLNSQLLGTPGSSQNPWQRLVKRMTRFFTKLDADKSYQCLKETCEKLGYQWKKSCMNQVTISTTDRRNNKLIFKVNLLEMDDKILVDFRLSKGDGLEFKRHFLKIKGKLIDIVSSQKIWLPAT
# Variants of: B1
# Settings: with araf_human ARAF
row,effect of a mutation on the interaction,Variant
1,with no effect,MSDVAIVKEGWLHKRGKYIKTWRPRYFLLKNDGTFIGYKERPQDVDQREAPLNNFSVAQCQLMKTERPRPNTFIIRCLQWTTVIERTFHVETPEEREEWTTAIQTVADGLKKQEEEEMDFRSGSPSDNSGAEEMEVSLAKPKHRVTMNEFEYLKLLGKGTFGKVILVKEKATGRYYAMKILKKEVIVAKDEVAHTLTENRVLQNSRHPFLTALKYSFQTHDRLCFVMEYANGGELFFHLSRERVFSEDRARFYGAEIVSALDYLHSEKNVVYRDLKLENLMLDKDGHIKITDFGLCKEGIKDGATMKTFCGTPEYLAPEVLEDNDYGRAVDWWGLGVVMYEMMCGRLPFYNQDHEKLFELILMEEIRFPRTLGPEAKSLLSGLLKKDPKQRLGGGSEDAKEIMQHRFFAGIVWQHVYEKKLSPPFKPQVTSETDTRYFDEEFTAQMITITPPDQDDSMECVDSERRPHFPQFSYSASGTA [E17K]

# Variants of: B2
# Settings: with fance_human FANCE
row,effect of a mutation on the interaction,Variant
1,causing an interaction,MSDVAIVKEGWLHKRGKYIKTWRPRYFLLKNDGTFIGYKERPQDVDQREAPLNNFSVAQCQLMKTERPRPNTFIIRCLQWTTVIERTFHVETPEEREEWTTAIQTVADGLKKQEEEEMDFRSGSPSDNSGAEEMEVSLAKPKHRVTMNEFEYLKLLGKGTFGKVILVKEKATGRYYAMKILKKEVIVAKDEVAHTLTENRVLQNSRHPFLTALKYSFQTHDRLCFVMEYANGGELFFHLSRERVFSEDRARFYGAEIVSALDYLHSEKNVVYRDLKLENLMLDKDGHIKITDFGLCKEGIKDGATMKTFCGTPEYLAPEVLEDNDYGRAVDWWGLGVVMYEMMCGRLPFYNQDHEKLFELILMEEIRFPRTLGPEAKSLLSGLLKKDPKQRLGGGSEDAKEIMQHRFFAGIVWQHVYEKKLSPPFKPQVTSETDTRYFDEEFTAQMITITPPDQDDSMECVDSERRPHFPQFSYSASGTA [E17K]

# Variants of: B2
# Settings: with fance_human FANCE
# Remark: another data set of the same source
row,effect of a mutation on the interaction,Variant
1,increasing interaction strength,MSDVAIVKEGWLHKRGKYIKTWRPRYFLLKNDGTFIGYKERPQDVDQREAPLNNFSVAQCQLMKTERPRPNTFIIRCLQWTTVIERTFHVETPEEREEWTTAIQTVADGLKKQEEEEMDFRSGSPSDNSGAEEMEVSLAKPKHRVTMNEFEYLKLLGKGTFGKVILVKEKATGRYYAMKILKKEVIVAKDEVAHTLTENRVLQNSRHPFLTALKYSFQTHDRLCFVMEYANGGELFFHLSRERVFSEDRARFYGAEIVSALDYLHSEKNVVYRDLKLENLMLDKDGHIKITDFGLCKEGIKDGATMKTFCGTPEYLAPEVLEDNDYGRAVDWWGLGVVMYEMMCGRLPFYNQDHEKLFELILMEEIRFPRTLGPEAKSLLSGLLKKDPKQRLGGGSEDAKEIMQHRFFAGIVWQHVYEKKLSPPFKPQVTSETDTRYFDEEFTAQMITITPPDQDDSMECVDSERRPHFPQFSYSASGTA [E17K]

# Variants of: B3
# Settings: with arfrp_human ARFRP1, Q13795
row,effect of a mutation on the interaction,Variant
1,with no effect,MSDVAIVKEGWLHKRGKYIKTWRPRYFLLKNDGTFIGYKERPQDVDQREAPLNNFSVAQCQLMKTERPRPNTFIIRCLQWTTVIERTFHVETPEEREEWTTAIQTVADGLKKQEEEEMDFRSGSPSDNSGAEEMEVSLAKPKHRVTMNEFEYLKLLGKGTFGKVILVKEKATGRYYAMKILKKEVIVAKDEVAHTLTENRVLQNSRHPFLTALKYSFQTHDRLCFVMEYANGGELFFHLSRERVFSEDRARFYGAEIVSALDYLHSEKNVVYRDLKLENLMLDKDGHIKITDFGLCKEGIKDGATMKTFCGTPEYLAPEVLEDNDYGRAVDWWGLGVVMYEMMCGRLPFYNQDHEKLFELILMEEIRFPRTLGPEAKSLLSGLLKKDPKQRLGGGSEDAKEIMQHRFFAGIVWQHVYEKKLSPPFKPQVTSETDTRYFDEEFTAQMITITPPDQDDSMECVDSERRPHFPQFSYSASGTA [E17K]

# Variants of: B4
# Settings: with acv1b_human ACVR1B
row,effect of a mutation on the interaction,Variant
1,with no effect,MSDVAIVKEGWLHKRGKYIKTWRPRYFLLKNDGTFIGYKERPQDVDQREAPLNNFSVAQCQLMKTERPRPNTFIIRCLQWTTVIERTFHVETPEEREEWTTAIQTVADGLKKQEEEEMDFRSGSPSDNSGAEEMEVSLAKPKHRVTMNEFEYLKLLGKGTFGKVILVKEKATGRYYAMKILKKEVIVAKDEVAHTLTENRVLQNSRHPFLTALKYSFQTHDRLCFVMEYANGGELFFHLSRERVFSEDRARFYGAEIVSALDYLHSEKNVVYRDLKLENLMLDKDGHIKITDFGLCKEGIKDGATMKTFCGTPEYLAPEVLEDNDYGRAVDWWGLGVVMYEMMCGRLPFYNQDHEKLFELILMEEIRFPRTLGPEAKSLLSGLLKKDPKQRLGGGSEDAKEIMQHRFFAGIVWQHVYEKKLSPPFKPQVTSETDTRYFDEEFTAQMITITPPDQDDSMECVDSERRPHFPQFSYSASGTA [E17K]

# Variants of: B5
# Settings: with chk1_human CHEK1, O14757
row,effect of a mutation on the interaction,Variant
1,with no effect,MSDVAIVKEGWLHKRGKYIKTWRPRYFLLKNDGTFIGYKERPQDVDQREAPLNNFSVAQCQLMKTERPRPNTFIIRCLQWTTVIERTFHVETPEEREEWTTAIQTVADGLKKQEEEEMDFRSGSPSDNSGAEEMEVSLAKPKHRVTMNEFEYLKLLGKGTFGKVILVKEKATGRYYAMKILKKEVIVAKDEVAHTLTENRVLQNSRHPFLTALKYSFQTHDRLCFVMEYANGGELFFHLSRERVFSEDRARFYGAEIVSALDYLHSEKNVVYRDLKLENLMLDKDGHIKITDFGLCKEGIKDGATMKTFCGTPEYLAPEVLEDNDYGRAVDWWGLGVVMYEMMCGRLPFYNQDHEKLFELILMEEIRFPRTLGPEAKSLLSGLLKKDPKQRLGGGSEDAKEIMQHRFFAGIVWQHVYEKKLSPPFKPQVTSETDTRYFDEEFTAQMITITPPDQDDSMECVDSERRPHFPQFSYSASGTA [E17K]

# Reference: IntAct's records for PubMed 35512704
